Measurements as given in patent US7183251B1, “hCG therapy for the treatment of breast cancer” (Fox Chase Cancer Center, priority 1998, dated 2007).

Assays:
[1] = system: metastatic breast cancer; experiment: Open-label study of r-hCG in metastatic breast cancer in postmenopausal women; format: in vivo, human
From the text: The primary objective of this study was to assess the effect of r-hCG on the tumor response rate of bi-dimensionally measurable or palpable lesions. The secondary objectives were: i.) to assess the effect of r-hCG treatment on symptoms caused by metastatic breast tumor lesions, ii.) to determine whether r-hCG exerts any adverse systemic effects, iii.) to measure time to tumor progression and, iv.) to determine the effects of r-hCG on endocrinology parameters and tumor markers.
Thirteen postmenopausal women diagnosed with biopsy-proven breast cancer and clinical evidence of metastatic disease were entered in the study. Patients are treated with 500 mcg of r-hCG three times per week for at least two months. Tumor assessment and measurement of target indicator lesions are performed every two months by X-ray, CT scan, MRI or physical examination. After 60 days of treatment, a re-evaluation of metastatic lesions is performed using the same diagnostic procedure(s). In the event of disease progression (i.e., appearance of new tumor or growth of indicator lesions by at least 25% in square dimensions) study treatment is discontinued, otherwise, treatment is continued, with patient re-evaluations every eight weeks, until progressive disease is noted.

[2] = system: DMBA-induced rat mammary carcinomas; experiment: Prevention of DMBA-induced rat mammary carcinomas (Regimens 1-3); format: in vivo
Method: Evaluation of the efficacy of r-hCG in the prevention of mammary cancer: Regimens 1–9 utilized in the experiments described below are shown schematically in FIG. 4. The animals utilized in Regimens 1–9 consisted of 450 intact virgin Sprague-Dawley rats that were purchased from Taconic Farms (New York, N.Y.).
The potential of hCG to inhibit the initiation of DMBA-induced rat mammary carcinomas was evaluated in intact virgin rats treated with placebo (Regimen 1); 100 IU r-hCG/day (Regimen 2), or 100 IU u-hCG/day (Regimen 3). All animals were injected daily for 21 days, starting when the rats were 45 days old. The carcinogen DMBA was administered as a single intragastric dose (8 mg/100 g body weight) given 21 days after the last injection of placebo or hormone. Under these protocols the first effect evaluated was the appearance of tumors detected by palpation and their location with regards to specific mammary glands. Other parameters evaluated were the rate of tumor growth, tumor ulceration, and tumor regression or ulcer healing and tumor necrosis in response to the hormonal treatment.
All treatments were initiated when the animals were 45 days old. For Regimen 1 fifty rats received a daily intraperitoneal (ip) injection of 0.5 ml placebo for 21 days. Under Regimens 2 and 3 the same number of animals received for 21 days 100 IU/day of r-hCG or u-hCG (Steris Laboratories, Phoenix, Ariz.) respectively. Twenty-one days after completion of the last injection, when the animals were 87 days old, the three groups of animals were inoculated with a single intragastric (ig) dose of 8 mg DMBA (Sigma Chemical Co., St. Louis, Mo.) per 100 g body weight (bw). Thereafter all the animals were palpated periodically for detection of tumor development and determination of tumor growth rate. Final tumorigenic response was evaluated 15 weeks after administration of DMBA.
Evaluation of Final Tumorigenic Response. […] The tumors were rapidly dissected, measured in three dimensions, and serially sliced. Adjacent slices were:
The following criteria were utilized for evaluating the final tumorigenic response:
1. Rate of tumor growth, based on sequential measurement of the two largest diameters of tumors in live animals utilizing a Vernier Caliper and expressing the results in mm.
2. Final tumor size, based on measurement of the length, width and height of dissected tumors with a Vernier Caliper. Results were expressed in mm. A progressively smaller tumor size in successive measurements was indicative of tumor regression. Palpable tumors that had disappeared at the time of dissection were considered to be 100% regressed. The mammary tissue in which the tumor had been originally identified was fixed in 10% NBF for histopathological analysis.
5. Statistical Analysis. The significance of the differences in tumorigenic response among the groups was determined by Chi Square analysis and Student's T test.

[3] = of 12 who completed the 60 day visit
[4] = 100 IU/day ip 21 days before DMBA, Regimens 2, 3

r-hCG: recombinant human chorionic gonadotropin, glycoprotein hormone composed of two non-covalently linked (α and β) subunits
patients with stable disease ([1]; 500 mcg three times per week): Six of the thirteen | reduction in liver metastases in partial responders ([1]; 500 mcg three times per week): greater than 50% | patients classified as partial responses ([1]; 500 mcg three times per week, thirteen patients entered): Two | patients dropped out due to progressive disease [1, 3]: four | patients remaining on active treatment in the maintenance phase [1, 3]: eight | No. Tumors/Animal [2, 4]: 0.10 | Percentage (animals with tumors) [2, 4]: 8.1 | Total No. Tumors [2, 4]: 5 | No. An. With Tumors ([2]; 100 IU/day ip 21 days from age 45 days, DMBA 21 days after last injection, 15 weeks post-DMBA): 4/49 and 4

Values joined by “and” are separate entries in the source; they are usually repeats but may differ in a detail not shown here. Identical values can stand only once.
